For assay [1], the target named is C-Raf kinase (SEQ. ID NO: 3) (Homo sapiens (Human), UniProt P04049, Y340D/Y341D). The assay can be described thus: Biochemical Assay for C-Raf (1). As to conditions: read-out: CRAF (1) IC50; Table J, assay version (1). The procedure: Biochemical Assay for C-Raf (1)
(§1) Activity of C-Raf kinase (SEQ. ID NO: 3) was determined spectroscopically using a coupled pyruvate kinase/lactate dehydrogenase assay that continuously monitors the ATP hydrolysis-dependent oxidation of NADH (e.g., Schindler et al., Science, 2000, 289, 1938-1942). Assays were conducted in 384-well plates (100 μL final volume) using 0.43 nM C-Raf (Sigma), 1.5 units pyruvate kinase, 2.1 units lactate dehydrogenase, 1 mM phosphoenol pyruvate, 0.28 mM NADH, 30.1 nM MEK (SignalChem), and 1 mM ATP in assay buffer (100 mM Tris, Ph 7.5, 15 mM MgCl2, 0.5 mM DTT, 0.1% octyl-glucoside, 0.002% (w/v) BSA, and 0.002% Triton X-100). Inhibition of C-Raf was measured by adding serial diluted test compound (final assay concentration of 1% DMSO). A decrease in absorption at 340 nm was monitored continuously for 6 h at 30° C. on a multi-mode microplate reader (BioTek). The reaction rate was calculated using the 4 to 5 h time frame. The reaction rate at each concentration of compound was converted to percent inhibition using controls (i.e., reaction with no test compound and reaction with a known inhibitor) and IC50 values were calculated by fitting a four-parameter sigmoidal curve to the data using Prism (GraphPad software).

The chains behind the UniProt entries cited, without tags or fusion partners. Residues count along the entry.
UniProt P04049, 307-648 Y340D/Y341D limits assumed: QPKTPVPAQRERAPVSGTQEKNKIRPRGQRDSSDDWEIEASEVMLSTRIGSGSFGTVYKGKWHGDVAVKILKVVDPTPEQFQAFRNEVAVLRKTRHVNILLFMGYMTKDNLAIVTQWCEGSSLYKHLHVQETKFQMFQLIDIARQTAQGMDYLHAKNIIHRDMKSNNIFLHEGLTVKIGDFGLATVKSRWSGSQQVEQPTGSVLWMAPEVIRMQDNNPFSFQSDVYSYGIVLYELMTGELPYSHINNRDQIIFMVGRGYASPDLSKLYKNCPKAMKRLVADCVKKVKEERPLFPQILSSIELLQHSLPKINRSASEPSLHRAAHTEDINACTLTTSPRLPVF
UniProt P15056, 416-766 limits assumed: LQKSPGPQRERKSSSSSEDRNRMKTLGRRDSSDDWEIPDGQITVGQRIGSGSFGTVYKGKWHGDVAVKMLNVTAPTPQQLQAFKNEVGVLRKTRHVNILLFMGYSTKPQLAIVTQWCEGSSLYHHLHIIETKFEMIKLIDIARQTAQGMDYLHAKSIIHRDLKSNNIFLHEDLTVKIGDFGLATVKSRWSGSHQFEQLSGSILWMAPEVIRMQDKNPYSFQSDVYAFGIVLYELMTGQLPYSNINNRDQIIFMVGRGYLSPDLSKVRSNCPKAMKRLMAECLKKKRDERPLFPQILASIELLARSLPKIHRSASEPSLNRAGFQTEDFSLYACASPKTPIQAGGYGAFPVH

The target of assay [2] is B-Raf kinase (SEQ. ID NO: 2) (Homo sapiens (Human), UniProt P15056). The assay can be described thus: Biochemical Assay for B-Raf (1). The following applies: read-out: BRAF (1) IC50; Table J, assay version (1). The procedure: Biochemical Assay for B-Raf (1)
as §1, with “B-Raf” for “C-Raf”, “2)” for “3)”, “0.13” for “0.43”

A further assay relates to Miapaca-2 cells. Nature of the assay: MiaPaca-2 Cell Proliferation Assay (1). The following applies: read-out: MiaPaca2 (1) IC50, single agent. The procedure:
MiaPaca-2 Cell Proliferation Assay (1)
Miapaca-2 cells (catalog #CRL-1420) are obtained from the American Type Culture Collect (ATTC, Manassas, VA). Briefly, cells were grown in DMEM supplemented with 10% characterized fetal bovine serum (Invitrogen, Carlsbad, CA), 2.5% New Zealand sourced horse serum and 1% Penicillin/Streptomycin/L-Glutamine at 37° C., 5% CO2, and 95% humidity. Cells are expanded until reaching 70-95% confluency at which point they are sub-cultured or harvested for assay use. A serial dilution of test compound is dispensed into a 96-well black clear bottom plate in triplicate. Three thousand cells are added per well in 200 μL complete growth medium in the 96-well plate. Plates are incubated for 67-72 h at 37° C., 5% CO2, and 95% humidity. At the end of the incubation, 40 μL of a 440 μM solution of resazurin (Sigma, St. Louis, MO) in PBS is added to each well of the plate and plates are incubated for an additional 5-6 h at 37° C., 5% CO2, and 95% humidity. Plates are read on a Synergy2 or equivalent reader (Biotek, Winooski VT) using an excitation of 540 nm and an emission of 600 nm. Data is analyzed using Prism software (GraphPad, San Diego, CA) to calculate IC50 values.

A further assay concerns WM3928 cells. Nature of the assay: WM3928 Cell Proliferation Assay (1). As to conditions: read-out: WM3928 (1) IC50. The procedure: WM3928 Cell Proliferation Assay (1)
WM3928 cells (#WM3928-01-0001) are obtained from Rockland Immunochemicals Inc (Gilbertsville, PA). Briefly, cells were grown in MCDB 153 medium (Sigma, #M7403, St. Louis, MO) supplemented with 20% Leibovitz's L-15 (ThermoFisher #11415-064, Waltham, MA), 2% heat inactivated fetal bovine serum (ThermoFisher, #A3840001, Waltham, MA), 5 μg/mL Insulin (Bovine Pancreas) (Sigma, #I0516, St. Louis, MO), 1.68 mM Calcium Chloride (Sigma, #C-34006, St. Louis, MO) and 1% Penicillin/Streptomycin/L-Glutamine (ThermoFisher #10378016, Waltham, MA) at 37° C., 5% CO2, and 95% humidity. Cells are expanded until reaching 70-95% confluency at which point they are subcultured or harvested for assay use. A serial dilution of test compound is dispensed into a 96-well black clear bottom plate in triplicate. Three thousand cells are added per well in 200 μL complete growth medium in the 96-well plate. Plates are incubated for 67-72 hours at 37° C., 5% CO2, and 95% humidity. At the end of the incubation, 40 μL of a 440 μM solution of resazurin (Sigma, #199303, St. Louis, MO) in PBS is added to each well of the plate and plates are incubated for an additional 6-7 hours at 37° C., 5% CO2, and 95% humidity. Plates are read on a Synergy2 or equivalent reader (Biotek, Winooski VT) using an excitation of 540 nm and an emission of 600 nm. Data is analyzed using Prism software (GraphPad, San Diego, CA) to calculate IC50 values.

Molecules are shown by their SMILES.

By IC50 is commonly meant the concentration that inhibits the measured activity by half.

As to `Cc1ccc(NC(=O)c2ccnc(C(C)(C)C#N)c2)cc1-c1cccc(-c2cc(NC3CN(C)C3)ncn2)c1`, the IC50 in assay [1] and in assay [2] was 100 to 500 nM in each case.
For the molecule `CNC(=O)c1cc(-c2cc(-c3cc(NC(=O)c4ccnc(C(F)(F)F)c4)ccc3C)ccn2)ccn1`, the IC50 in assay [1] is under 100 nM; with Miapaca-2 cells it was 1000 to 10000 nM; in assay [2], under 100 nM.
As to `Cc1ncc(NC(=O)c2cn(C(C)C)nn2)cc1-c1cccc(-c2cc(NC(=O)C3CC3)ncn2)c1`, the IC50 in assay [1] is under 100 nM; in the assay with Miapaca-2 cells it was 1000 to 10000 nM; in assay [2], under 100 nM; in the assay on WM3928 cells, 100 to 500 nM.
`CNC(=O)c1cc(-c2cc(-c3cc(NC(=O)c4ccnc(C(C)(C)C#N)c4)ccc3C)cc(C)n2)ccn1`: the IC50 is under 100 nM in assay [1], 100 to 500 nM in assay [2] and 100 to 500 nM in the assay on WM3928 cells.

These data come from patent US12319655B2, “RAF kinase inhibitors and methods of use thereof” (Deciphera Pharmaceuticals, LLC, priority 2021, dated 2025).
